Measured values taken from patent US12171769B2, “Methods, compositions, and kits for treating and/or preventing a side effect associated with radiation and/or chemotherapy exposure” (BioMimetix JV, LLC, priority 2017, dated 2024).

Columns and labels:
[1] = tested on: FaDu (human pharyngeal carcinoma) cells; conditions: for percentage of mice with complete tumor regression: day 90 post-treatment, MnBuOE 0.6/0.3 mg/kg
cognitive function = conditions: after 8 weeks of chemoradiation therapy compared to time 0
Experimental: Four different loading doses were tested, which were: 7, 14, 28 and 42 mg, and the maintenance doses were half of the respective loading dose. The loading dose was administered prior to chemoradiation, and for the duration of treatment the respective maintenance doses were administered twice a week (i.e., a patient administered a 7 mg loading dose received two separate maintenance doses of 3.5 mg each week for 8 weeks.) The primary focus of this study is to determine the maximum tolerated dose of four dose levels. […] All subjects have a diagnosis of glioblastoma (WHO grade IV) and mean age is 62.7 years (range 54 years to 80 years).
Cognitive testing included Hopkins Verbal Learning Test-Revised (HVLT-R), Trails Making A and B Tests, and Controlled Oral Wood Association Test (COWA). […] This is notable because these are the primary cognitive tests that reveal poorer performance in multiple brain mestastases patients after whole brain radiation therapy.

GSH/GSSG = conditions: MnBuOE alone, single 0.2 mg/kg dose; compared to saline and saline+RT controls
Experimental: MnBuOE synthesis and administration: MnBuOE was synthesized as previously described. […] Mouse injections were administered subcutaneously, with MnBuOE dissolved in sterile saline. Mice received an initial dose of 0.2, 0.6, or 2.0 mg/kg, followed by three times per week (t.i.w.) maintenance doses of one-half of the loading dose (i.e., 0.1, 0.3, or 1.0 mg/kg, respectively) (termed 2/1, 0.6/0.3 and 0.2/0.1 dosing schedules).

[2] = tested on: normal tissue injury following RT+cisplatin; conditions: 12 weeks post-RT+cisplatin; MnBuOE 0.6/0.3 mg/kg for five weeks
Experimental: Mice were treated with 1×9Gy+6 mg/kg cisplatin.
A collimating cone that produced a 15 mm×40 mm radiation field was used to target the radiation beam to the salivary gland and oral cavity. The RT field included all major and minor salivary glands (located primarily in the neck region of mice), and the oral mucosa, including glands of the cheeks, lips and tongue. The target tissues were localized within the radiation field with a source-to-subject distance of 30.76 cm, using fluoroscopy at 40 kVp and 2.5 mA with a 2 mm Al filter. […] Control mice were anesthetized but not imaged fluoroscopically or irradiated.
Mucositis evaluation using fluorescence molecular tomography: As reported previously, we used ProSense 750EX (Perkin Elmer, Waltham, MA) to detect mucositis. ProSense 750EX is a near-infrared (NIR) imaging agent that is cleaved by cathepsins, a family of enzymes that are expressed during inflammation, (17). Mice were injected intravenously with 100 μL ProSense 750EX. Twenty-four hours after injection, mice were anesthetized via isoflurane and imaged using the Visen FMT 2500LX (Perkin Elmer). The ProSense 750EX signal was quantified using TrueQuant software (Perkin Elmer Life and Analytical Sciences, Downers Grove, IL).

manganese butoxyethyl pyridyl porphyrin [BMX-001]
tumor growth relative to RT/cisplatin ([1]; 0.6 mg/kg loading dose then t.i.w. 0.3 mg/kg, fractionated RT + cisplatin 6 mg/kg): did not significantly affect tumor growth
tumor-free mice ([1]; 90 days post-treatment, sham, 3×6Gy or 3×9 Gy groups): No mice were tumor-free
percentage of mice with complete tumor regression ([1]; 3×12Gy + cisplatin): 33%
percentage of mice with complete tumor regression ([1]; 3×15Gy + cisplatin): 40%
percentage of mice with complete tumor regression ([1]; 3×17Gy + cisplatin): 50%
decline in cognitive function (cognitive function): no measurable decline
GSH/GSSG ratio in tongue tissue (GSH/GSSG): slightly increased
mice that still had ulcers in the mouth and surrounding skin and had failed to gain weight post-RT [2]: 1 out of 4

Like-named read-outs stand apart in the source and are kept apart here.
